In PubChem BioAssay AID1979 (Broad Institute, 2009):
The entries are a selection whose mix differs from that of the whole data set. Some salts and complexes are drawn in separate pieces, as the source files them; their charges need not balance. The source made the active and inactive calls.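 The calls were made as follows: active = growth inhibition above about 58% in most replicates (limit read from the data, passing the limit was not always enough); inconclusive = exactly half the replicates above a set limit; inactive = most replicates below a set limit.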

Test: C. albicans growth inhibition with fluconazole, primary screen, CaCi-2 strain, Alamar Blue fluorescence (AID 1979);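 also: all wells also contain fluconazole at 8 µg/ml as a sub-toxic cotreatment; 0% = median of DMSO wells and 100% = median of geldanamycin control wells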
Details: C. albicans CaCi-2 (fluconazole-resistant clinical isolate) + fluconazole, 48 h, hits give high values, concentration not given here

SMILES | growth inhibition
COc1ccc(OP(C)(=O)Nc2cccc(Br)c2)cc1 (centres undefined) | inactive: 19%
O=P(Nc1ccccn1)(c1ccc(Br)cc1)c1ccc(Br)cc1 | inactive: 20.7%
CN(C)C1(CNC(=O)c2ccc(Cl)c(S(N)(=O)=O)c2)CCCCC1 | inactive: -4.37%
CN(C)CCOC(=O)C(O)(c1ccccc1)C1CCCCC1 (centres undefined) | inactive: -5.7%
O=P(Nc1nc2ccccc2s1)(c1ccccc1)c1ccccc1 | inactive: 1.85%
C[C@H]1OP(=O)(Oc2ccccc2)[C@H](O)[C@H](O)[C@H]1N=[N+]=[N-] (some centres undefined) | inactive: -2.58%
COc1ccc(NP(C)(=O)Oc2ccccc2OC)cc1 (centres undefined) | inactive: -3.42%
O=[N+]([O-])c1ccc(O)c(/C=N/Nc2ccc([N+](=O)[O-])cc2[N+](=O)[O-])c1 | inactive: -21.7%
O=[N+]([O-])c1ncn(CCn2cnc([N+](=O)[O-])n2)n1 | inactive: 9.57%
CC(=O)NC(SC(=S)N(C)C)C(Cl)(Cl)Cl (centres undefined) | inactive: -0.549%
O=[N+]([O-])c1ccc(OP2(=O)COCCO2)cc1 (centres undefined) | inactive: 7.18%
O=[As](O)(c1ccccc1)c1ccc(O)cc1 | inactive: -10.4%
O=[N+]([O-])c1cc([N+](=O)[O-])c(NCC2CCS(=O)(=O)C2)c([N+](=O)[O-])c1 (centres undefined) | inactive: 39.3%
Cc1cc(-c2cccc3ccccc23)c(C)cn1.O=[N+]([O-])c1cc([N+](=O)[O-])c(O)c([N+](=O)[O-])c1 | inactive: -0.442%
Nc1ccc([As](=O)(O)c2ccc([N+](=O)[O-])cc2)cc1 | inactive: 2.75%
C(Cc1nn[nH]n1)Cc1nn[nH]n1 | inactive: -21.2%
O=C(OC1CN2CCC1CC2)c1cccc(Cl)c1 (centres undefined) | inactive: -0.222%
CP(=O)(Nc1ccc(SC(F)(F)F)cc1)Oc1ccc(F)cc1 (centres undefined) | inactive: -2.03%
CC(C)C(=O)NC(Sc1ccccc1)C(Cl)(Cl)Cl (centres undefined) | inactive: -16.3%
O=P(Nc1nccs1)(c1ccccc1)c1ccccc1 | inactive: -3.8%
CCOP(C)(=S)SCC(=O)NC(C)(CC)C(=O)O (centres undefined) | inactive: 25.1%
c1nnnn1CCn1cnnn1 | inactive: 5.41%
CP(=O)(Nc1ccc2c(c1)OCCO2)Oc1ccccc1 (centres undefined) | inactive: -8.55%
Cc1ccccc1NP(C)(=O)Nc1ccccc1C | inactive: -5.06%
CCOc1ccc(C2=NCC(CBr)S2)cc1 (centres undefined) | inactive: -12.8%

SMILES | growth inhibition
CP(=O)(Nc1ccccc1F)Oc1ccccc1 (centres undefined) | inactive: -11.9%
CC(C)(C)C(=O)NC(Sc1ccccc1)C(Cl)(Cl)Cl (centres undefined) | inactive: -27.1%
CC(C)c1ccc(OP(C)(=O)Nc2ccc(SC(F)(F)F)cc2)cc1 (centres undefined) | inactive: 5.48%
CC(=O)c1ccc(N2CC2c2ccncc2)cc1 (centres undefined) | inactive: -4.57%
O=C(OC1CN2CCC1CC2)c1ccc([N+](=O)[O-])cc1 (centres undefined) | inactive: -1.06%
O=C(OCCN1CCN(CCOCc2ccccc2)CC1)C(O)(c1ccccc1)c1ccccc1 | inactive: -7.28%
C[C@@H]1C=CCP(=O)(Oc2ccccc2)O1 (some centres undefined) | inactive: -9.62%
C[C@H]1OP(=O)(Oc2ccccc2)C[C@@H]2O[C@@H]21 (some centres undefined) | inactive: -4.13%
COc1ccc2c(c1O)-c1c(O)c(OC)cc3c1[C@H](C2)[N+](C)(C)CC3.O=[N+]([O-])c1cc([N+](=O)[O-])c([O-])c([N+](=O)[O-])c1[O-] | inactive: 2.47%
CC(=O)Nc1ccc([As](=O)(O)O)c(O)c1 | inactive: 1.2%
CC(=O)Nc1ccc(Oc2c([N+](=O)[O-])cc([N+](=O)[O-])cc2[N+](=O)[O-])cc1 | inactive: -3.61%
CCNC(=S)/N=C(\N)N[N+](=O)[O-] | inactive: -4.91%
O=C(NC1CCS(=O)(=O)C1)NP(=S)(Oc1ccccc1)Oc1ccccc1 (centres undefined) | inactive: 6.3%
c1ccc(-c2nn[nH]n2)c(-c2nn[nH]n2)c1 | inactive: 4.97%
CCOC(=O)NC(Sc1ccccc1)C(Cl)(Cl)Cl (centres undefined) | inactive: -0.365%
Cc1ccc(NP(=O)(Oc2cccc(C)c2)Oc2cccc(C)c2)nc1 | inactive: -6.96%
CCOC(=O)c1ccc(NP(C)(=O)Oc2ccc(F)cc2)cc1 (centres undefined) | inactive: 3.38%
COc1ccc(OP(C)(=O)Nc2ccc(SC(F)(F)F)cc2)cc1 (centres undefined) | inactive: -5.82%
COC(=O)c1cc2c(s1)N=C(c1ccccc1)N(C)P2(=O)N1CCOCC1 (centres undefined) | inactive: -9.26%
Cc1ccc(OP(=O)(Nc2ccccn2)Oc2ccc(C)cc2)cc1 | inactive: -2.26%
CC(=O)NC(SC(=S)N(CC(C)C)CC(C)C)C(Cl)(Cl)Cl (centres undefined) | inactive: 50.5%
O=C(OC1CN2CCC1CC2)c1ccccc1 (centres undefined) | inactive: 2.58%
CCN(CC)CCCOC(=O)C(O)(c1ccccc1)C1CCCCC1 (centres undefined) | inactive: -3.85%
CCC(=O)N1C2C3N(C(=O)CC)C1C1N(C(=O)CC)C(C(N1C(=O)CC)N3C(=O)CC)N2C(=O)CC | inactive: 0.389%
CP(=O)(Nc1ccccc1)Oc1ccc(F)cc1 (centres undefined) | inactive: 0.22%

SMILES | growth inhibition
Cc1ccccc1OP(=O)(Nc1ccccn1)Oc1ccccc1C | inactive: 2.68%
CN(C)C(=O)Oc1noc2ccccc12 | inactive: 3.92%
CCCCCOc1ccc(NP(C)(=O)Oc2ccc(Cl)cc2Cl)cc1 (centres undefined) | inactive: -2.29%
O=[N+]([O-])c1cc([N+](=O)[O-])c(OC2CCCCC2O)c([N+](=O)[O-])c1 (centres undefined) | inactive: -5%
O=C(O)c1ccccc1[As](=O)(O)O | inactive: 3.27%
CC(=O)Nc1ccc([As](=O)(O)O)cc1 | inactive: 2.05%
Cc1cc(C)cc(OP(C)(=O)Nc2cccc(C(F)(F)F)c2)c1 (centres undefined) | inactive: 7.43%
O=P(Nc1nc2ccc(Cl)cc2s1)(c1ccccc1)c1ccccc1 | inactive: 13.5%
CCOP(=O)(Nc1ccccc1)OCC | inactive: -0.64%
Cc1cc(SC(NC(=O)c2ccc(F)cc2)C(Cl)(Cl)Cl)ncn1 (centres undefined) | inactive: 0.783%
Cc1ccc(NP(=O)(Oc2ccccc2F)Oc2ccccc2F)nc1 | inactive: -8.22%
COc1ccccc1OP(C)(=O)Nc1ccc(C)c(C)c1 (centres undefined) | inactive: -3.38%
COc1ccc(OP(C)(=O)Nc2ccccc2Br)cc1 (centres undefined) | inactive: -6.34%
Cc1nc2ccc3ccccc3c2o1.O=[N+]([O-])c1cc([N+](=O)[O-])c(O)c([N+](=O)[O-])c1 | inactive: 2.75%
O=[N+]([O-])c1cc([N+](=O)[O-])c(CCN2CCOCC2)c([N+](=O)[O-])c1 | inactive: -1.33%
CCN(N=Nc1nonc1N)c1nonc1N | inactive: -1.59%
Nc1cccc2ccc([As](=O)(O)O)cc12 | inactive: 0.256%
CP(=O)(OCCOc1ccccc1)OCCOc1ccccc1 | inactive: -0.129%
CP(=O)(Nc1ccc(Cl)cc1Cl)Oc1ccccc1 (centres undefined) | inactive: -3.83%
NC(=O)c1cc([N+](=O)[O-])cc([N+](=O)[O-])c1N | inactive: -3.39%
COc1ccccc1OP(C)(=O)Nc1ccc(Br)cc1 (centres undefined) | inactive: 7.06%
Cc1ccc(N/C(=N/P(=O)(N2CCOCC2)N2CCOCC2)N2CCOCC2)cc1 | inactive: 18.8%
COc1ccc(OP(C)(=O)Nc2ccccn2)cc1 (centres undefined) | inactive: -6.69%
COc1ccccc1OP(=O)(Nc1ccc(C)cn1)Oc1ccccc1OC | inactive: -3.04%
Cc1ccc(OP(=O)(Nc2nccs2)Oc2ccc(C)cc2)cc1 | inactive: -10.5%

SMILES | growth inhibition
Clc1ccc(Cl)c(NC2=NCC(CBr)S2)c1 (centres undefined) | inactive: -9.6%
CN(C)CCOC(=O)C(O)(c1ccccc1)C1CCCC1 (centres undefined) | inactive: -14.3%
CN1CCCC(OC(=O)C(c2ccccc2)c2ccccc2)C1 (centres undefined) | inactive: -3.09%
CC(C)CC(=O)NC(Sc1ccc(Cl)cc1)C(Cl)(Cl)Cl (centres undefined) | inactive: -5.88%
O=[N+]([O-])c1cc([N+](=O)[O-])c(Nc2ccccn2)c([N+](=O)[O-])c1 | inactive: 57.4%
Cc1c(NP(C)(=O)Oc2ccc(C(C)C)cc2)c(=O)n(-c2ccccc2)n1C (centres undefined) | inactive: 3.69%
Nc1cc(N)c2nonc2c1[N+](=O)[O-] | inactive: 24.9%
Oc1ccccc1CNc1ccccn1 | inactive: 3.57%
Cc1c2non([O-])c-2c(C)[n+](=O)[n+]1[O-] | inactive: 22.7%
O=C(NC(Sc1ccncn1)C(Cl)(Cl)Cl)c1ccccc1 (centres undefined) | inactive: -2.48%
CP(=O)(Nc1ccccn1)Oc1ccccc1 (centres undefined) | inactive: 1.99%
COc1ccccc1OP(C)(=O)Nc1ccc(C)cc1C (centres undefined) | inactive: -2.91%
CCc1ccc(OP(C)(=O)O)cc1 | inactive: 1.87%
CCN(CC)CC(O)COC(=O)C(O)(c1ccccc1)C1CCCCC1 (centres undefined) | inactive: -0.638%
COc1ccc(OP(C)(=O)Nc2ccc(Br)cc2)cc1 (centres undefined) | inactive: 20.8%
COc1ccc(C2=NCC(CBr)S2)cc1 (centres undefined) | inactive: -0.749%
COc1ccccc1OP(C)(=O)Nc1c(C)n(C)n(-c2ccccc2)c1=O (centres undefined) | inactive: -2.75%
O=[N+]([O-])c1cccc2n[nH]nc12 | inactive: 2.24%
CC(=O)N1C2C3N(C(C)=O)C1C1N(C(C)=O)C(C(N1C(C)=O)N3C(C)=O)N2C(C)=O | inactive: 2.31%
O=C(OCCCN1CCCC1)C(O)(c1ccccc1)C1CCCCC1 (centres undefined) | inactive: -3.35%
CP(=O)(Oc1ccccc1)N1CCOC1=O (centres undefined) | inactive: -4.05%
Cc1ccc(NP(=O)(Oc2ccccc2)Oc2ccccc2)nc1 | inactive: 2.41%
CCc1nc2c(n1)c1c(non1O)c1c2no[n+]1[O-] | inactive: 51.7%
O=[N+]([O-])c1cc([N+](=O)[O-])c(CCNc2ccccc2)c([N+](=O)[O-])c1 | inactive: -4.14%
